Measured affinities in a library of Ab-14 heavy chain variants

Source: Li et al. 2023 (doi:10.1038/s41467-023-39022-2), MIT Lincoln Laboratory and A-Alpha Bio; data file from the FLAb repository.

Target: peptide PDVDLGDISGINAS, taken from heptad repeat 2 (HR2) of SARS-CoV-2 spike.

Ab-14 is the parent antibody, in scFv form: VH, then the linker GGGGSGGGGSGGGGS, then VL. The light chain is unchanged in all variants.
VH: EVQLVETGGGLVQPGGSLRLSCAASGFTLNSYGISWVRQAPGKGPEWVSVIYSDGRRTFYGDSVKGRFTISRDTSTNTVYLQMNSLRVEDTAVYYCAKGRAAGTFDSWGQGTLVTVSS
VL: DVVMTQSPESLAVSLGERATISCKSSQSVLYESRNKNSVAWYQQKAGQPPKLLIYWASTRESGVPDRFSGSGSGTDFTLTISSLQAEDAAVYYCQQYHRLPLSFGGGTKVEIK

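This is the validation round: designs drawn from the data on random variants, tested in the same kind of assay. Group labels follow the data file (En: ensemble of fine-tuned language models; HC: hill climbing; Gen: genetic algorithm; Gibbs: Gibbs sampling; a sequence that several methods proposed may carry one label only). The scFvs were displayed on barcoded MATa yeast, the peptide on MATalpha yeast. The frequency of each diploid, read from paired DNA barcodes, reflects how well the two displayed proteins bind. A regression on co-assayed BCL2-family reference pairs converts the normalised counts of each replicate to an apparent Kd. Each pool was mated in six replicate cultures.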

The parent's heavy chain CDRs are GFTLNSYGIS, VIYSDGRRTFYGDSVK, GRAAGTFDS; each variant's own CDRs replace them letter for letter.
Variants here have more than six changes.
Values are log10 of the apparent Kd in nM; lower means stronger binding.
A mean of the replicates is given; it leaves out those without a signal.
"nd" marks a missing value. The strain was present, yet no cells mated with the target were sequenced in any replicate, which points to weak or no binding.
Values of this round are not directly comparable with the first-round values of the same sequences.
The parent sequence was in this pool as ten entries: three were never detected, three once, and four in most replicates, with averages from 0.34 to 2.37.
The authors averaged sequences with at least three values out of six and counted those with two or fewer as poor binders.
Nonspecific signal, from three strains lacking the peptide, appeared in 1% of pairings of all heavy chain designs, centred on 2.08 (5% of these signals below 0.84); values are not corrected for it.

With GFDLNEYGIS | VIYADGRRTAYSDSVK | GEAGGTFDW [En_HC] the result was 0.19 (6 of 6 replicates). Variant GFSLDEYGIS | VIYADGRRTFYADSVK | GNHAGTFDS [En_HC] showed 0.10 (5 of 6 replicates). With GFDLNEYGIS | VIYADGKRTAYADSVK | GENAGTFDL [En_Gen] the result was -0.25 (6 of 6 replicates). For GFDLNEYGIS | VIYADGRRTAYSDSVK | GGNAGFFDK [En_HC], the assay gave nd (0 of 6 replicates). Variant GFDLGEYGIS | VIYADGQRFAYAQEFK | GEAGGAFDL [En_Gibbs] gave nd (0 of 6 replicates). Variant GFDLNEYGIS | VIYADGMRTYYADDVK | GENAGTFDV [En_Gen] gave -0.30 (6 of 6 replicates).

Variant GFDLNEYGIS | VIYADGRRTAYADNVK | GNNAGTFDV [En_Gen] showed 0.51 (6 of 6 replicates). With GFSLDEYGIS | VIYADGVRTQYHPKVK | GLQGFIFDQ [En_Gibbs] the result was 2.95 (1 of 6 replicates). Variant GFDLNEYGIS | VIYADGKRTFYADSVK | GEIAGTFDQ [En_HC] gave 0.18 (6 of 6 replicates). For GFDLNEYGIS | VIYADGRRKAYADDVK | GNNAGTFDV [En_Gen], the assay gave -0.33 (6 of 6 replicates). Variant GFDLNEYGIS | VIYADGMRTAYTDSVK | GNEAGTFDF [En_HC] gave -0.04 (6 of 6 replicates). For GFDLNEYGIS | VIYADGMRTAYADSVK | GQNAGTFDV [En_Gen], the assay gave 0.32 (1 of 6 replicates).

Variant GEELEEYGIS | VIYADGRKQSYSDSVK | GAIAGNFDA [En_Gibbs] gave 1.86 (1 of 6 replicates). With GADLNEYGIS | VIYADGRRVEYENSFK | GHVAGTFDS [En_Gibbs] the result was -0.21 (6 of 6 replicates). For GFDLDEYGIS | VIYADGLRTAYADSVK | GNVAGTFDL [En_Gen], the assay gave 0.00 (6 of 6 replicates). For GFDLNEYGIS | VIYADGMRKAYADNVK | GNVAGTFDL [En_Gen], the assay gave -0.81 (6 of 6 replicates). Variant GFDLDEYGIS | VIYADGQRTAYTDSVK | GNVAGTFDT [En_Gen] showed -0.37 (6 of 6 replicates). With GFDLNEYGIS | VIYADGMRQAYADSVK | GENAGTFDV [En_Gen] the result was -0.63 (6 of 6 replicates).

For GFDLNEYGIS | VIYADGRRTFYSDSVK | GQNAGTFDI [En_HC], the assay gave -0.13 (6 of 6 replicates). With GFDLNEYGIS | VIYADGQRSFYADSVK | GQLAGTFDS [En_HC] the result was -0.87 (6 of 6 replicates). With GFNLNEYGIS | VIYADGYRRAYANSVK | GYNMSLGVT [En_Gibbs] the result was nd (0 of 6 replicates). Variant GFDLDEYGIS | VIYADGMRTAYSDSVK | GETAGTFDL [En_Gen] gave 0.52 (6 of 6 replicates). For GFDLNEYGIS | VIYADGQRTAYADSVK | GTVAGTFDQ [En_Gen], the assay gave -0.05 (6 of 6 replicates). Variant GFDLNEYGIS | VIYADGMRTFYADSVK | GNLAGTFDF [En_HC] showed -0.46 (6 of 6 replicates).

Variant GFNLNEYGIS | VIYADGRRTFYADSVK | GEVAGSFDI [En_HC] showed -0.14 (6 of 6 replicates). For GFDLNEYGIS | VIYADGMRTQYIDSVK | GETAGTFDL [En_HC], the assay gave -0.13 (6 of 6 replicates). For GFDLDEYGIS | VIYADGVRKAYADSVK | GNVAGTFDL [En_Gen], the assay gave nd (0 of 6 replicates). Variant GFDLEDYGIS | VIYADGKRTAYADSVK | GENAGTFDV [En_Gen] showed 0.08 (6 of 6 replicates). For GFDLNEYGIS | VIYADGMRTAYADSVK | GNVAGTFDT [En_Gen], the assay gave -0.65 (6 of 6 replicates). Variant GFNLLEYGIS | VIYADGKRTMYTNAVK | GMINDGVMA [En_Gibbs] gave nd (0 of 6 replicates).

Variant GFDLESYGIS | VIYADGRRTFYSDSVK | GKNAGTFDI [En_HC] showed -0.73 (6 of 6 replicates). With GFKLDEYGIS | VIYADGKRTAYADEVK | GGGTTDRGI [En_Gibbs] the result was nd (0 of 6 replicates). Variant GFDLNEYGIS | VIYADGMRTAYIDSVK | GENAGTFDM [En_Gen] showed -0.02 (6 of 6 replicates). Variant GFDLNEYGIS | VIYADGVRKAYIDSVK | GNVAGTFDV [En_Gen] gave -0.49 (6 of 6 replicates). Variant GFDLNEYGIS | VIYADGMRTAYTDSVK | GETAGTFDI [En_Gen] gave -0.45 (1 of 6 replicates). With GFDLDEYGVS | VIYADGERTFYADKVK | GTHGETRDI [En_Gibbs] the result was nd (0 of 6 replicates).

Extract of 5 entries:

CDR-H1	CDR-H2	CDR-H3	group	mean, log10 nM	seen in
GFDLNEYGIS	VIYADGMRTAYIDSVK	GENAGTFDM	En_Gen	-0.02	6/6
GFDLNEYGIS	VIYADGMRTAYADSVK	GNVAGTFDT	En_Gen	-0.65	6/6
GFDLNEYGIS	VIYADGMRTAYTDSVK	GETAGTFDI	En_Gen	-0.45	1/6
GFDLNEYGIS	VIYADGQRTAYADSVK	GTVAGTFDQ	En_Gen	-0.05	6/6
GFDLNEYGIS	VIYADGRRTAYSDSVK	GEAGGTFDW	En_HC	0.19	6/6